Measured values from publication PMC10119423, “From PERK to RIPK1: Design, synthesis and evaluation of novel potent and selective necroptosis inhibitors” (Frontiers in Chemistry, 2023).

Test system: MEFs
Assay: RIPK1 kinase-dependent necroptosis (hTNF + TAK1i + zVAD.fmk) in MEFs, Sytox Green
Assay type: cell-based
Settings: Mus musculus, zVAD.fmk + TAK1i + hTNF (100 pg/mL)

| SMILES | pIC50 |
| --- | --- |
| Cn1cc(-c2ccc3c(c2F)CCN3C(=O)Cc2ccc(C(F)(F)F)cn2)c2c(N)ncnc21 [Compound 22] | 7.82 |
| CN1C(=O)[C@@H](NC(=O)c2n[nH]c(Cc3ccccc3)n2)COc2ccccc21 [GSK’772] | < 7.00 |
| Cc1cccc(CC(=O)N2CCc3c2ccc(-c2cn(C)c4ncnc(N)c24)c3F)n1 [Compound 10] | 8.36 |

pIC50: −log10 of the molar value.
